Test: Acute toxicity of intravenous injection in mice with heparin pretreatment
Format: in vivo
Excerpt: It is known that acute toxicity likely occurs through the interaction of positively charged polymers, such as protamines, polylysine, or their aggregates, and the luminal surface of blood vessels. DeLucia, et al., “Efficacy and toxicity of differently charged polycationic protamine-like peptides for heparin anticoagulation reversal,” J Vasc. Surg. 18:49-60 (1993). Ekrami, et al., “Carbamylation decreases the cytotoxicity but not the drug-carrier properties of polylysines,” J. Drug Targ. 2:469-475 (1995). It has been further shown that heparin reduces the toxic effects of protamine sulfate on rabbit myocardium. Wakefield, et al., “Heparin-mediated reductions of the toxic effects of protamine sulfate on rabbit myocardium,” J Vasc. Surg. 16:47-53 (1992). To test the hypothesis that the acute toxicity seen here was due to positively charged prodrug aggregates, βAla-Leu-Ala-Leu-Dox (174 μMol/ml) was given to mice following a 1 hr pretreatment with 4,000 I.U. heparin, intravenously, as compared to control.

[1] = heparin pretreatment i.p. 4000 I.U.
[2] = heparin pretreatment i.p. 8000 I.U.
[3] = heparin pretreatment i.v. 4000 I.U.

COc1cccc2c1C(=O)c1c(O)c3c(c(O)c1C2=O)C[C@@](O)(C(=O)CO)C[C@@H]3O[C@H]1C[C@H](NC(=O)[C@H](CC(C)C)NC(=O)[C@H](C)NC(=O)[C@H](CC(C)C)NC(=O)CCN)[C@H](O)[C@H](C)O1 [βAla-Leu-Ala-Leu-Dox, β-Ala-Leu-Ala-Leu-Doxorubicin]
Acute toxicity (Proportion) (Control (iv), heparin 0 I.U.): 5/5
Survival time (Control (iv), heparin 0 I.U.): 0 days
Acute toxicity (Proportion) [1]: 3/8
Survival [Proportion] [1]: [5/8]
Survival time [1]: >9 days
Acute toxicity (Proportion) [2]: 0/3
Survival [Proportion] [2]: [3/3]
Survival time [2]: >11 days
Acute toxicity (Proportion) [3]: 1/3
Survival [Proportion] [3]: [2/3]
Survival time [3]: >11 days

Reference: patent publication US8034787B2, “Enzyme-cleavable prodrug compounds” (Medarex, Inc., priority 1998, dated 2011)
